{"source": "PubChem BioAssay AID758", "about": "(NMMLSC, 2007)", "note": "Hit rate of the full screen: of about 190,000 compounds, about 110 (0.058%) were called active. All entries are inconclusive by the source's own rule. Clear calls are listed elsewhere.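 How the source made its calls: active means fluorescent GTP binding to Rab7 beads changed by at least 20 points from the 100% baseline, either direction, mostly lower; inconclusive means compound itself probably fluorescent, or too few beads counted; inactive means the rest.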"}
{"tested_on": "Rab7 GTPase wild type (dog), Bodipy-FL-GTP binding", "test": "modulators of GTP binding to Rab7, primary screen, biochemical, wildtype, multiplex bead flow cytometry (AID 758);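 further: median green fluorescence of bound Bodipy-FL-GTP per Rab7 bead population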", "settings": "GST-Rab7 beads, fluorescent GTP binding, at 10 µM, actives lie on both sides, untreated = 100%, excess cold GTP = 0%"}
{"smiles": "O=C(OC1CN2CCC1CC2)C12CC3CC(CC(C3)C1)C2", "note": "(stereo not drawn)", "GTP binding activity (percent of control)": "inconclusive: 97%"}
{"smiles": "CC(C)=N/N=C(\\N)N[N+](=O)[O-]", "GTP binding activity (percent of control)": "inconclusive: 99%"}
{"smiles": "COc1ccccc1OP(=O)(Nc1ccc(C)cn1)Oc1ccccc1OC", "GTP binding activity (percent of control)": "inconclusive: 95%"}
